Columns and labels:
[1] = Inhibition of ABCG2 in human H460/MX20 cells assessed as potentiation of mitoxantrone induced antiproliferative activity by measuring mitoxantrone IC50 at 1 uM preincubated for 2 hrs followed by mitoxantrone addition measured after 72 hrs by MTT assay (reference value: 6.161 +/- 0.172 microM)
[2] = Inhibition of ABCG2 in human H460/MX20 cells assessed as potentiation of mitoxantrone induced antiproliferative activity by measuring mitoxantrone IC50 at 10 uM preincubated for 2 hrs followed by mitoxantrone addition measured after 72 hrs by MTT assay (reference value: 6.161 +/- 0.172 microM)

COc1cccc(-n2nnc(-c3ccccc3NC(=O)Nc3cccc([N+](=O)[O-])c3)n2)c1
IC50 [1]: 967 nM
IC50 [2]: 750 nM
